According to patent US9180129B2, “Combination of lapatinib and trametinib” (NOVARTIS AG, priority 2010, dated 2015):

Tested on: KPL4
Assay: Cell growth inhibition assay, KPL4 (breast HER2+)
Assay type: cell-based, Human
Conditions: 3 days, read-out: Single agent IC50 (μM), mean ± STD
Experimental: Human tumor cell lines from breast cancer, AU565, BT474, COLO824, HCC1419, HCC1954, HCC2218, JIMT1, MDA-MB-175VII, MDA-MB-453, SK-BR-3 and SUM149, colorectal cancer, LS174T, NCI-H508, NCI-H747, SW403 and T84, melanoma, A375S2, CHL-1 and SK-MEL-5; pancreatic cancer, Capan-1, HPAF-11 and SUIT2, and bladder cancer, 647V, BFTC-905 and SW780 were cultured in RPMI 1640 media containing 10% FBS; BT-474-J4, a breast cancer cell line acquired resistance to Compound A was cultured in RPMI 1640 media containing 10% FBS and 1 μM Compound A. KPL4 breast cancer line was cultured in DMEM containing 5% FBS. All lines were kept in a humidified incubator at 37° C. in 95% air and 5% CO2. […]
All cells were cultured for a minimum of 72 hours prior to cell plating. […] ATP levels were determined by adding Cell Titer Glo® reagent (Promega) according to the manufacturer's protocol. Briefly, Cell Titer Glo® reagent was added to each plate, incubated for 20 minutes then the luminescent signal was read on the SpectraMax L plate reader with a 0.5 sec integration time.
Inhibition of cell growth was estimated after treatment with compound or a combination of compounds for three days and comparing the signal to cells treated with vehicle (DMSO). Cell growth was calculated relative to vehicle (DMSO) treated control wells. […]

`CS(=O)(=O)CCNCc1ccc(-c2ccc3ncnc(Nc4ccc(OCc5cccc(F)c5)c(Cl)c4)c3c2)o1` [Compound A, N-{3-Chloro-4-[(3-fluorobenzyl)oxy]phenyl}-6-[5-({[2-(methanesulphonyl)ethyl]amino}methyl)-2-furyl]-4-quinazolinamine] was tested, and the IC50 was 0.568 ± 0.083 µM.
